# scFv variants of Ab-14 (light chain) against a SARS-CoV-2 spike peptide

Target: peptide PDVDLGDISGINAS, taken from heptad repeat 2 (HR2) of SARS-CoV-2 spike.

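The parent was found by panning a naive human phage display library on the peptide. These sequences belong to a second round, designed from the earlier measurements on random variants of the parent. Their group label is 14L_GP_Gen (GP: Gaussian process model; Gen: genetic algorithm; a sequence that several methods proposed may carry one label only). Affinity was read by AlphaSeq, a pooled yeast mating assay with surface-displayed partners. The frequency of each diploid, read from paired DNA barcodes, reflects how well the two displayed proteins bind. The ratio of observed to expected reads was calibrated, replicate by replicate, on BCL2-family standards whose Kd was known from biolayer interferometry. Each pool was mated in six replicate cultures.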

Each scFv is VH, a 15-residue (Gly4Ser)3 linker, VL, as in the parent Ab-14, and differs from it in the CDRs of the light chain only.
VH: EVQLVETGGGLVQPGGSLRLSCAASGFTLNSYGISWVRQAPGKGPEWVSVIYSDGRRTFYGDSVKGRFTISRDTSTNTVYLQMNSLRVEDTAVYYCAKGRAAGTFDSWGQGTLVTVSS
VL: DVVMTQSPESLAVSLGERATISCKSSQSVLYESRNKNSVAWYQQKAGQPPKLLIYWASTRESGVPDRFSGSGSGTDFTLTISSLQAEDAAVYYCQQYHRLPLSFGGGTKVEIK

Positions count from residue 1 of the parent VL; S25V puts V in place of S. Scale: log10 of Kd in nM, estimated from mating counts; low values are strong binders. Replicates are averaged; those with no signal do not enter the mean. The authors averaged sequences with at least three values out of six and counted those with two or fewer as poor binders. As a blank, each scFv also met three strains without target: over all light chain designs, 4% of these pairings were detected, typically at 2.64 and seldom below 1.59. The control count says in how many pairings with the empty strains this scFv gave a signal, with their mean in brackets. The range of this assay differs from that of the first round, and the authors advise against merging the two.

changes,"log10 Kd, replicates","log10 Kd (nM), mean",empty controls
S25V/E32Q/W56E,0.13 / -0.20 / -0.31 / -0.53 / -0.21 / -0.15,-0.21,2/18 (2.75)
S25V/W56Q/S103M,-0.23 / 0.00 / -0.01 / -0.01 / -0.03 / 0.10,-0.03,0/18
S25L/K36P/S38N/W56N,-0.21 / -0.19 / -0.41 / -0.33 / -0.24 / -0.04,-0.24,1/18 (3.33)
S25I/W56G/E61L,-0.47 / 0.65 / 0.34 / 0.02 / 0.16 / 0.19,0.15,0/18
S25L/S26Q/K36C/W56N,-0.03 / -0.08 / 0.00 / -0.28 / -0.11 / 0.04,-0.08,1/18 (2.21)
S25L/W56G/S103M,0.16 / 0.12 / 0.20 / 0.20 / 0.37 / 0.15,0.20,0/18
S26Q/V29E/W56N/E61M,0.09 / -0.10 / -0.08 / -0.16 / -0.21 / 0.04,-0.07,1/18 (2.74)
S25L/V29A/W56N/E61M,-0.37 / -0.40 / -0.46 / -0.61 / -0.19 / -0.25,-0.38,0/18
S25L/S26E/V29E/W56N/E61Y,0.00 / 0.07 / -0.15 / -0.20 / -0.09 / 0.10,-0.04,3/18 (2.86)
S25I/W56E,0.27 / 0.14 / -0.13 / -0.12 / -0.07 / 0.16,0.04,1/18 (1.58)
S25L/V29W/W56N/S103E,0.18 / 0.18 / 0.05 / -0.03 / 0.03 / 0.22,0.11,4/18 (3.08)
S25V/V29T/W56N,-0.09 / 0.06 / 0.00 / 0.10 / 0.01 / -0.23,-0.02,0/18
S25L/V29Y/S33Q/W56N/E61L,0.39 / -0.07 / -0.02 / -0.28 / -0.09 / 0.43,0.06,2/18 (2.26)
S25L/S26P/V29C/W56N,-0.02 / -0.06 / -0.18 / -0.19 / -0.07 / 0.05,-0.08,0/18
S25L/S26Q/V29F/W56N/T59Q/E61L,-0.09 / -0.49 / -0.25 / -0.36 / -0.61 / -0.36,-0.36,0/18
K24S/S25L/W56N,-0.40 / -0.29 / -0.31 / -0.46 / -0.37 / -0.15,-0.33,3/18 (3.69)
S25L/L30M/W56S,0.13 / -0.13 / 0.03 / -0.19 / -0.12 / 0.11,-0.03,1/18 (2.52)
S25L/N35M/S38N/W56G,0.12 / -0.25 / -0.23 / -0.02 / -0.03 / -0.02,-0.07,0/18
S25L/S26D/V29Q/W56N/T59Q/E61L,-0.24 / -0.52 / -0.54 / -0.54 / -0.60 / -0.37,-0.47,2/18 (2.24)
S25L/W56D/S62M,-0.16 / -0.28 / -0.53 / -0.73 / -0.67 / -0.11,-0.41,0/18
V29W/K36F/W56N/T59Q,0.39 / 0.22 / 0.77 / 0.16 / 0.60 / 0.87,0.50,0/18
S25L/V29E/L30D/W56N/E61M,0.10 / -0.13 / -0.17 / -0.18 / 0.08 / 0.12,-0.03,0/18
S25M/V29E/W56N/E61L,0.35 / -0.13 / -0.08 / -0.14 / 0.01 / 0.36,0.06,0/18
S25L/V29F/W56D/T59Q,-0.21 / -0.24 / -0.45 / -0.50 / -0.49 / -0.33,-0.37,3/18 (2.86)
S25V/S26Q/W56D/E61C,-0.17 / -0.54 / -0.67 / -0.44 / -0.61 / -0.09,-0.42,0/18
S25V/S26P/S38A/W56N,0.20 / 0.38 / -0.01 / -0.17 / 0.04 / 0.09,0.09,0/18
S25L/V29T/W56N/T59Q,-0.25 / -0.24 / -0.27 / -0.43 / -0.30 / -0.04,-0.25,2/18 (2.92)
S25L/S26Y/N35M/W56N/T59Q,0.85 / 1.23 / 0.35 / 0.51 / 0.30 / 0.42,0.61,1/18 (2.32)
S25L/S26V/W56N/T59Q/E61L,0.79 / 0.61 / 0.56 / 0.48 / 0.71 / 0.67,0.64,0/18
S25V/S26Q/V29W/W56N/E61M,-0.31 / 0.10 / 0.17 / -0.19 / -0.19 / 0.01,-0.07,1/18 (2.56)
S25L/S26Q/V29E/W56H/E61M,0.04 / 0.19 / -0.17 / -0.44 / -0.12 / 0.25,-0.04,2/18 (2.21)
S25L/S26Q/V29E/W56N/E61C,-0.05 / -0.14 / -0.13 / -0.32 / -0.10 / 0.06,-0.11,1/18 (2.43)
S25V/V29E/W56N/Q96S,0.05 / -0.08 / -0.18 / -0.36 / 0.07 / 0.09,-0.07,0/18
S25L/V29H/W56E/E61C,0.01 / 0.24 / 0.12 / 0.27 / 0.07 / 0.26,0.16,2/18 (3.32)
S25L/S26P/W56G/E61L,-0.42 / -0.36 / -0.42 / -0.57 / -0.62 / -0.29,-0.45,0/18
S25V/S26K/W56N,-0.26 / -0.41 / -0.46 / -0.53 / -0.54 / -0.35,-0.43,1/18 (2.21)
S25L/V29N/K36S/W56N,-0.16 / -0.14 / -0.07 / -0.07 / -0.09 / 0.14,-0.07,1/18 (2.33)
S25L/S26P/S38A/W56D,-0.13 / 0.29 / -0.43 / -0.10 / -0.31 / -0.24,-0.15,0/18
S25L/W56H/A57G,0.39 / 0.04 / 0.11 / 0.00 / 0.28 / 0.20,0.17,0/18
S25L/E32M/W56N,0.53 / -0.05 / 0.27 / 0.04 / -0.04 / 0.22,0.16,0/18
S25L/V29W/W56N/E61L/Q96D,-0.22 / -0.42 / -0.30 / -0.36 / -0.31 / -0.19,-0.30,3/18 (2.69)
S25L/W56N/A57G/S62V,-0.13 / -0.33 / -0.37 / -0.46 / -0.45 / -0.24,-0.33,1/18 (2.75)
S25L/W56N/T59Q/Q96D,0.06 / -0.02 / -0.11 / -0.06 / 0.06 / -0.25,-0.05,2/18 (2.47)

Values reported by Li et al. 2023, doi:10.1038/s41467-023-39022-2 (FLAb copy).